According to patent publication US11413324B2, “Compositions and methods for treating peripheral nerve disease, disorders, and injuries” (University of Virginia Patent Foundation, priority 2017, dated 2022):

System: peripheral olig2^+ cells
Assay: Chemical screen of the LOPAC 1280 library: peripheral olig2+ cells scored in olig2:dsred larvae at 72 hpf
Type: in vivo, zebrafish
[1] = 10 μM compound, 1% DMSO, 24 to 72 hpf, blind secondary screen in triplicate

CC(=O)SCC[N+](C)(C)C.[Cl-] [Acetylthiocholine chloride]
validated hit: at least one peripheral olig2+ cell in 3/3 or 2/2 larvae (zebrafish, in vivo): Validated hits from screen using LOPAC ®^1280.

OCc1cc(C(O)CNCCCCCCOCCCCc2ccccc2)ccc1O (stereo not shown) [Salmeterol xinafoate]
validated hit: at least one peripheral olig2+ cell in 3/3 or 2/2 larvae [1]: Validated hits from screen using LOPAC ®^1280.

COc1cc(/C=C(\C#N)C(=O)c2ccc(O)c(O)c2)cc(I)c1O [I-OMe-Tyrphostin AG 538]
validated hit: at least one peripheral olig2+ cell in 3/3 or 2/2 larvae [1]: Validated hits from screen using LOPAC ®^1280.

S=C(Nc1ccccc1)Nc1nccs1 [l-Phenyl-3-(thiazolyl)-2-thiourea, 1-phenyl-3-(2-thiazolyl)-2-thiourea]
validated hit: at least one peripheral olig2+ cell in 3/3 or 2/2 larvae [1]: Validated hits from screen using LOPAC ®^1280.

C[C@H]1CCC/C=C/[C@@H]2C[C@H](O)C[C@H]2[C@H](O)/C=C/C(=O)O1 [Brefeldin A]
validated hit: at least one peripheral olig2+ cell in 3/3 or 2/2 larvae (zebrafish, in vivo): Validated hits from screen using LOPAC ®^1280.

N=C(N)NOCC[C@H](N)C(=O)O.O=S(=O)(O)O [L-Canavanine sulfate]
validated hit: at least one peripheral olig2+ cell in 3/3 or 2/2 larvae (zebrafish, in vivo): Validated hits from screen using LOPAC ®^1280.

O=C(O)c1ccccc1Nc1ccccc1 [N-Phenylanthranilic acid]
validated hit: at least one peripheral olig2+ cell in 3/3 or 2/2 larvae [1]: Validated hits from screen using LOPAC ®^1280.
